Assay results published in patent US7247734B2 (Vernalis (Cambridge) Limited, priority 2001, dated 2007).
pIC50: −log10 of the molar value.

The chains behind the UniProt entries cited, without tags or fusion partners.
UniProt P02829, whole entry, looked up: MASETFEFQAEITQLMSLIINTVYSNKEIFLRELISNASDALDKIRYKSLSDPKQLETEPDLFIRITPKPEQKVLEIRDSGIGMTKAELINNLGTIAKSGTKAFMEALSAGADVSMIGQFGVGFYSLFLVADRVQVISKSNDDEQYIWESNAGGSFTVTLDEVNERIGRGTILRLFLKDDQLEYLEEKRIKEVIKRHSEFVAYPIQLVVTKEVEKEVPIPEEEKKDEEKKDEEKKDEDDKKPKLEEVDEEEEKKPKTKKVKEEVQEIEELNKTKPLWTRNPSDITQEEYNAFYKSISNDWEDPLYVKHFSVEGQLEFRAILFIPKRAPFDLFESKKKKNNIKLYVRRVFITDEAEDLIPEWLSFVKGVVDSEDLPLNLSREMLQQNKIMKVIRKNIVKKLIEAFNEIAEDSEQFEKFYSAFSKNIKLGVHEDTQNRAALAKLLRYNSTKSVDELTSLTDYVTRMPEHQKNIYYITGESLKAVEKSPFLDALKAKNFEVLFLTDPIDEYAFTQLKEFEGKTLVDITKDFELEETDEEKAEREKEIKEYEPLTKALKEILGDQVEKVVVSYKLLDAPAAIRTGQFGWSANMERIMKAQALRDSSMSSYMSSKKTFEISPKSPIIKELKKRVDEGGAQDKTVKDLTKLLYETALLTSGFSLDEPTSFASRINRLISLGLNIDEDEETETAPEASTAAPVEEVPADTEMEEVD

Target: T1, yeast HSP90 (Saccharomyces cerevisiae, UniProt P02829)
T1 construct: made in house; host or cells: E. coli
Test: Malachite green HSP90 ATPase assay
Assay type: biochemical
Details: activity class
Description: Two methods have been developed to measure the intrinsic ATPase activity of HSP90, using yeast HSP90 as a model system. The first method utilises a regenerating coupled enzyme assay. The second assay, based on the use of malachite green for the measurement of inorganic phosphate, was designed for high throughput screening (HTS) to identify novel HSP90 inhibitor drug candidates.
Colorimetric assays for the determination of phosphate, based on the formation of a phosphomolybdate complex, can be carried out in a few steps with inexpensive reagents and are well suited to the automation required for high throughput screening (see, e.g., Cogan et al., 1999). Enzymes that release inorganic phosphate are assayed using the reaction of the cationic dye, malachite green, with the a complex formed by a reaction of the inorganic phosphate with molybdate to generate a blue-green colour with an absorbance maximum at 610 nm (see, e.g., Baykov et al., 1988; Harder et al., 1994; Maehama et al., 2000). The method has been used in both high throughput (see, e.g., Rumsfeld et al., 2000) and ultra-high throughput screening formats (see, e.g., Layery et al., 2001) for a variety of non-HSP90 ATPases. However, this method is complicated by the non-enzymatic hydrolysis of ATP in the presence of acidic malachite green reagent, causing an increase in colour (see, e.g., Chan et al., 1986; Henkel et al., 1988). […]

CCc1cc(-c2n[nH]c(C(=O)O)c2-c2ccc3c(c2)OCO3)c(O)cc1O [Example 89]
pIC50: > 5.00
